The subject of data set [1] is RXR-M454A/L455A interaction with TBP-V237G. As to the kind of experiment: Yeast two-hybrid assay, RXR τc mutant M454A/L455A with TBP mutant V237G (beta-galactosidase). Format: cell-based, human. The note with it: strain Y190, 16 hours, presence vs absence of 1 μM 9-cis retinoic acid. The source says: Point mutations were introduced into the appropriate oligonucleotides.
The finding that a single point mutation in TBP could disrupt the interaction with the wildtype RXR ligand binding domain prompted an examination of the ability of TBP-V237G to interact with the RXR .tau.c mutants. […] Point mutants consist of amino acids 197-462 of RXR. RXR197-443 represents the .tau.c truncation. Note the difference in scale between A and B.

Data set [2] deals with RXR (human RXRα amino acids 197-462) interaction with full length Drosophila TAF110. The settings on record: strain Y190, 16 hours, presence or absence of 1 μM 9-cis retinoic acid.
Data set [3] concerns RXR (human RXRα amino acids 197-462) interaction with conserved carboxy terminal domain of human TBP. The settings on record: strain Y190, 16 hours, presence or absence of 1 μM 9-cis retinoic acid.

Turning to `CC1=C(/C=C/C(C)=C\C=C\C(C)=C\C(=O)O)C(C)(C)CCC1` [9-cis retinoic acid], the “ligand-dependent induction of the interaction between TBP-V237G and RXR-M454A/L455A” value in data set [1] is ~10 fold. In data set [2], the “interaction between RXR and TAF110” value is “ligand-dependent interaction”. Also, the “interaction between RXR and the conserved carboxy-terminal domain of TBP” value in data set [3] is “specific and ligand-dependent interaction”.

Source of the values: patent US5906920A, “Methods for the detection of ligands for retinoid X receptors” (The Salk Institute for Biological Studies, priority 1995, dated 1999).
